Measured values reported in article PMC8348901, “Novel N-Substituted 3-Aryl-4-(diethoxyphosphoryl)azetidin-2-ones as Antibiotic Enhancers and Antiviral Agents in Search for a Successful Treatment of Complex Infections” (International Journal of Molecular Sciences, 2021).

System: Madin Darby canine kidney cells (MDCK)
Settings: dog

NC(=O)c1ncn([C@@H]2O[C@H](CO)[C@@H](O)[C@H]2O)n1 [ribavirin, reference compound]
MCC (minimum cytotoxic concentration): > 100 µM
